The entries are a selection whose mix differs from that of the whole data set. Records with an inconclusive call do not appear. The source made the active and inactive calls. Calls come from the whole dose curve; as a rule, active = well fitted cell-killing curve with a large enough effect; inconclusive = small, poorly fitted or top-dose-only effect, or effect the other way; inactive = flat fitted curve, though single readings scatter.
% is set by controls: 0 for no effect and ±100 for the full control effect.

A short description of this test: qHTS assay for MDR1-selective chemotherapeutics: Primary screen using the drug-selected MDR subline cells KB-V1. Note: nearly all actives have a fitted effect of over 60% in size. To be noted: KB-V1 MDR cells viability, CellTiter-Glo, 72 h; at 46.1 µM (top of the series). From the text: A prime difficulty in effectively treating cancer is the development of cellular resistance to multiple structurally unrelated anticancer drugs, a phenomenon known as multidrug resistance (MDR). […] Numerous strategies to overcome P-gp-mediated MDR have been explored, including the design of drugs that evade recognition and efflux, and development of inhibitors to block efflux and restore drug accumulation. […] An alternative approach is to exploit resistance by identifying drugs that target MDR cells over the non-resistant parental cells from which they were selected. […] The development of MDR1-selective agents represents a new strategy for resolving multidrug resistance, as it remains a long-standing clinical challenge for cancer chemotherapy.
Our goal is to identify compounds that selectively kill P-gp-expressing MDR cells. We will identify MDR1-selective compounds by comparing toxicity of compounds in the screening library against parental, drug-naive (KB-3-1) adenocarcinoma cells as well as their drug-selected MDR sub-line (KB-V1). The differential toxicity of compounds against these two cell lines will be used to identify MDR1-selective compounds, whose cytotoxicity is potentiated, rather than diminished, by P-gp expression. This assay will be utilized to conduct a quantitative high-throughput screen (qHTS) in collaboration with the NIH Chemical Genomics Center to identify selective agents, and probe hits arising from the screen will be validated using secondary assays and characterized through a well-established follow-up research program. This screen was run against the entire NCGC library collection of about 400,000 compounds.
NIH Molecular Libraries Probe Production Network [MLPCN]
NIH Chemical Genomics Center [NCGC]
PI: Michael Gottesman, National Cancer Institute, NIH
Briefly, 5 microL of media containing either KB-V1 cells (columns 1-2, 4-48) are dispensed into Greiner white, treated solid-bottom 1536-well assay plates (media-only control is added to column 3). Compounds are then transferred via Kalypsys pin tool equipped with 1536-pin array (10 nL slotted pins, V&P Scientific, San Diego, CA). Following addition of compound, the plates are incubated at 37 degrees C for 72 hours. CellTiter-Glo (2.5 µL/well) is then added, and the plates are read in a ViewLux reader (Perkin-Elmer, clear luminescence filter, 1 second exposure, 1x binning) following a 10 minute incubation. All cells are dispensed in DMEM phenol-red free media containing 10% FBS.
Library plates were screened starting from the lowest and proceeding to the highest concentration. Vehicle-only plates, with DMSO being pin-transferred to columns 5-48, will be inserted uniformly at the beginning and the end of each library in order to monitor and record any shifts in the background, which can be affected by reagent dispensers or loss in enzyme activity over time. Screening data will be corrected, normalized, and concentration-effect relationships will be derived by using publicly-available NCGC, NCATS curve fitting algorithms (http://ncgc.nih.gov/pub/openhts).
As for `CN(C)C1(CNC(=O)c2ccc(C(C)(C)C)cc2)CCCCC1`, the activity change, negative = cytotoxicity is inactive: 1.94%.
The value for `CCC(c1nnnn1C1CCCCC1)N1CCC(n2c(=O)[nH]c3ccccc32)CC1` (stereo unspecified) was inactive: 0%; that for `Cc1ccc(C(=O)NCC2(N3CCCCC3)CCCCC2)o1` was inactive: -6.81%; that for `Fc1ccccc1NC1CCN(Cc2ccccc2)CC1` was inactive: -13.1%.
In the case of `Cc1ccc(Nc2c([N+](=O)[O-])cc([N+](=O)[O-])cc2[N+](=O)[O-])cc1`, the activity change, negative = cytotoxicity was inactive: -0.717%.
The figure for `Cc1ccccc1NC1(C#N)CCN(Cc2ccccc2)CC1` is inactive: 26.4%; for `CC(C)(C)n1nnnc1C(c1ccnc2ccccc12)N1CCC(n2c(=O)[nH]c3ccccc32)CC1` (stereo unspecified) it is inactive: 10.8%.
Turning to `O=C(NCC1(N2CCCCC2)CCCCC1)c1ccco1`, the activity change, negative = cytotoxicity is inactive: 0%.
With `CC(C)(C)c1ccc(C(=O)NCC2(N3CCOCC3)CCCCC2)cc1`, the activity change, negative = cytotoxicity is inactive: -0.955%.
The value for `CN(C)c1ccc(C(=O)NCC2(N3CCCCC3)CCCCC2)cc1` was inactive: -18.8%; that for `Cn1c(=O)[nH]cc(N(CCCl)CCCl)c1=O` was inactive: -17.1%.
Consider `Cc1ccccc1C(=O)NCC1(N(C)C)CCCCC1`, for which the activity change, negative = cytotoxicity is inactive: -0.769%.
Take `CN1CCC(Nc2ccc(F)c(Cl)c2)CC1`: the activity change, negative = cytotoxicity was inactive: 8.99%.
Turning to `CCCOc1ccc(C(=O)NCC2(N(C)C)CCCCC2)cc1`, the activity change, negative = cytotoxicity was inactive: -5.81%.
In the case of `CC(C)(C)OC(=O)N1CCC(Nc2ccccc2)CC1`, the activity change, negative = cytotoxicity was inactive: -26.5%.
The value for `O=C(O)C1(Nc2ccccc2)CCN(Cc2ccccc2)CC1` was inactive: 20.9%; that for `ClCCN(CCCl)c1ccc(C=C2C=CC=C2)cc1` was inactive: -3.82%; that for `CCC(CO)(C(=O)OC1CN2CCC1CC2)c1ccccc1` (stereo unspecified) was inactive: 19.6%.
The value for `COc1cccc(C(c2nnnn2C2CCCC2)N2CCC(n3c(=O)[nH]c4ccccc43)CC2)c1OC` (stereo unspecified) was inactive: 0%; that for `COc1cc(C(=O)NCC2(N3CCOCC3)CCCCC2)cc(OC)c1OC` was inactive: -22.9%.
The value for `COc1cccc(C(=O)N(c2cc(C)cc(C)c2)C2CCN(C(=O)OC(C)(C)C)CC2)c1` was inactive: -6.16%; that for `CN1CCC(Nc2ccc(Cl)cc2)CC1` was inactive: 19.7%; that for `O=C(NCC1(N2CCOCC2)CCCCC1)c1cc(Br)ccc1Cl` was inactive: 5.54%.
As to `CCCCn1nnnc1C(c1ccccc1)N1CCC(n2c(=O)[nH]c3ccccc32)CC1` (stereo unspecified), the activity change, negative = cytotoxicity was inactive: 8.15%.
The figure for `COc1ccc(C(=O)NCC2(N3CCOCC3)CCCCC2)cc1OC` is inactive: -19.2%.
For `O=c1[nH]c2ccccc2n1C1CCN(C(c2ccnc3ccccc23)c2nnnn2C2CCCC2)CC1` (stereo unspecified), the activity change, negative = cytotoxicity was inactive: -0.613%.
The figure for `O=Cc1ccc(N(CCCl)CCCl)cc1` is inactive: 6.24%.
As to `N/C(=N\O)c1c(N)no[n+]1[O-]`, the activity change, negative = cytotoxicity was inactive: 21.1%.
The value for `CCOC(=O)N1CCC(Nc2ccc(C)cc2)CC1` was inactive: -19.6%.
The value for `COc1cccc(C(c2nnnn2C(C)(C)C)N2CCC(n3c(=O)[nH]c4ccccc43)CC2)c1OC` (stereo unspecified) was inactive: -20.6%.
The value for `O=C(O)c1cccc(Nc2c([N+](=O)[O-])cc([N+](=O)[O-])cc2[N+](=O)[O-])c1` was inactive: 12.9%; that for `CC(C)(C)OC(=O)N1CCC(N(C(=O)c2ccccc2)c2ccc(Cl)cc2)CC1` was inactive: -23%.
As for `N#Cc1ccc(C(=O)NCC2(N3CCCCC3)CCCCC2)cc1`, the activity change, negative = cytotoxicity was inactive: -21.9%.
With `O=C(NCC1(N2CCOCC2)CCCCC1)c1ccccc1[N+](=O)[O-]`, the activity change, negative = cytotoxicity is inactive: -22.1%.
Regarding `CCOC(=O)C(CC)C1=NC(C)(C)Cc2ccccc21.O=[N+]([O-])c1cc([N+](=O)[O-])c(O)c([N+](=O)[O-])c1` (stereo unspecified), the activity change, negative = cytotoxicity was inactive: -0.812%.
Regarding `c1ccc(CN2CCC(Nc3ccccc3)CC2)cc1`, the activity change, negative = cytotoxicity is inactive: 5.75%.
As to `O=C(NCC1(N2CCOCC2)CCCCC1)c1ccccc1`, the activity change, negative = cytotoxicity was inactive: -24.6%.
The figure for `CCCN1CCC(Nc2cc(OC)cc(OC)c2)CC1` is inactive: -20.1%; for `CC(C)(C)n1nnnc1C(c1cccc2ccccc12)N1CCC(n2c(=O)[nH]c3ccccc32)CC1` (stereo unspecified) it is inactive: -16.8%.
The value for `CC(C)(C)n1nnnc1C(c1ccccc1OC(F)(F)F)N1CCC(n2c(=O)[nH]c3ccccc32)CC1` (stereo unspecified) was inactive: -27%; that for `O=C(NCC1(N2CCCCC2)CCCCC1)c1ccc(OC(F)F)cc1` was inactive: -16.2%; that for `CCOc1ccc(C(=O)NCC2(N3CCOCC3)CCCCC2)cc1` was inactive: -18.5%.
Turning to `O=C(NCC1(N2CCCCC2)CCCCC1)c1cccc([N+](=O)[O-])c1`, the activity change, negative = cytotoxicity was inactive: 3.64%.
The figure for `CCN1CCC(Nc2ccc(Cl)cc2)CC1` is inactive: 24.6%; for `O=c1[nH]c2ccccc2n1C1CCN(C(c2ccccc2OC(F)(F)F)c2nnnn2C2CCCC2)CC1` (stereo unspecified) it is inactive: 0%.
The value for `O=C(NCC1(N2CCCCC2)CCCCC1)c1cccc(C(F)(F)F)c1` was inactive: -6.93%.
